scFv variants of Ab-14 (heavy chain) against a SARS-CoV-2 spike peptide

Antigen: PDVDLGDISGINAS, a 14-residue peptide of the SARS-CoV-2 spike HR2 region.

The variants keep the light chain, the linker and the frameworks of Ab-14 (scFv order VH, three GGGGS repeats, VL).
VH: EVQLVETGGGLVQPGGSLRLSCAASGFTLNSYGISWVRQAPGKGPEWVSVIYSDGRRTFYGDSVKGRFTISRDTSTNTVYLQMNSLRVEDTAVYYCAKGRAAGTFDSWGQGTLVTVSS
VL: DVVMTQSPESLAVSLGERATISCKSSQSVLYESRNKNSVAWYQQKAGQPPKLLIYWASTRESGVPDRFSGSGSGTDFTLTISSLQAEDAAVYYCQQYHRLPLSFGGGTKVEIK

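This is the validation round: designs drawn from the data on random variants, tested in the same kind of assay. Group labels follow the data file (Ctrl: baseline library sampled from a position-specific scoring matrix, with some repeated check sequences; Rand: our label for a block that the file lists under HC and that is probably the random mutants of the ten best first-round binders; En: ensemble of fine-tuned language models; GP: Gaussian process model; GPLM: also part of the Gaussian process libraries; HC: hill climbing; Gen: genetic algorithm; Gibbs: Gibbs sampling; a sequence that several methods proposed may carry one label only). In AlphaSeq, yeast of one mating type display the scFv and yeast of the other type display the target. Pairs that bind mate more often; barcode pairs of the diploids are counted by sequencing. A regression on co-assayed BCL2-family reference pairs converts the normalised counts of each replicate to an apparent Kd. The assay was run in six technical replicates.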

The parent's heavy chain CDRs are GFTLNSYGIS, VIYSDGRRTFYGDSVK, GRAAGTFDS; each variant's own CDRs replace them letter for letter.
The read-out is the apparent dissociation constant on a log10 scale (nM): the lower, the stronger.
Replicates are averaged; those with no signal do not enter the mean.
Where no diploid with the target was found in any replicate, the entry reads "no signal": below detection, most likely a poor binder, though not proof of it.
The range of this assay differs from that of the first round, and the authors advise against merging the two.

CDR-H1 | CDR-H2 | CDR-H3 | group | mean log10 Kd (nM) | seen in
GFDLNEYGIS | VIYADGVRVAYQNQVK | GNINGSFTF | En_Gibbs | no signal | 0/6
GFFLNDYGIS | VIYSDGRRTFYIDSVK | GTAAGTFDS | GP_HC | 0.99 | 6/6
GFTLEIYGIS | VMYSDGRRTFYGDSVK | GRAALTFIS | Rand | no signal | 0/6
GFDLNEYGIS | VIYADGRRTYYIDSVK | GNEAGTFDV | En_HC | -0.42 | 6/6
GFTLNSYGIS | VIYSDGQRTFYGDSVK | GRTAGTFDS | GPLM_Gen | 1.23 | 5/6
GFTLNDYGIS | VIYSDGRRTFYGDSVK | GTAAGTFDS | Ctrl | 0.77 | 6/6
GFDLNSYGIS | VIYSDGKRTFYGDSVK | GHAAGTFDS | GP_Gibbs | 0.35 | 6/6
GFVLNSYGIS | VIYSDGRRTFYGDSVK | GRAAGTFDL | Ctrl | no signal | 0/6
GFSLNSYGIS | VIYSDGRRTFYDDSVK | GALAGTFDS | GP_HC | 0.15 | 6/6
GFDLNEYGIS | VIYADGRRKAYADSVK | GNVAGTFDL | En_Gen | -0.41 | 6/6
GFTLNEYGIS | VIYSDGRRTFYTDSVK | GREAGTFDF | GP_HC | 1.00 | 6/6
GFTLNSYGIS | VIYSDGRRTFYIDSVK | GKEAGTFDS | GPLM_Gibbs | 0.92 | 3/6
GFTLNSYGIS | VIYSDGRRTFYSDSVK | QRLGGTFDS | Rand | no signal | 0/6
GFTLNSYGIS | VIYSDGRRTFYDDSVK | GQLAGTFDT | GPLM_HC | 1.29 | 5/6
GFDLNEYGIS | VIYADGMRTAYADDVK | GNTAGTFDM | En_Gen | -0.32 | 6/6
GFSLNQYGIS | VIYSDGRRTFYGDSVK | GRAAGTFDS | GPLM_Gen | 0.32 | 2/6
GFTLDSYGIS | VIYSDGQRTFYGDDVK | GRAADTFDS | Ctrl | no signal | 0/6
GFDLNSYIIS | VIYSDGRRTFWGDSVK | GRCARWFNS | Rand | no signal | 0/6
GFDLNSYGIS | VIYSDGRRTFYGDSVK | GRDAGTFDS | GPLM_Gen | 1.20 | 6/6
GFDLNEYGIS | VIYADGVRTAYIDSVK | GNQAGTFDV | En_Gen | no signal | 0/6
GFNLNSYGIS | VIYSDGRRTFYIDSVK | GREAGTFDS | GPLM_Gibbs | 0.34 | 5/6
GFTLNEYGIS | VIYSDGKRTFYGDSVK | GRQAGTFDS | GP_Gen | 0.63 | 6/6
GFNLNSYGIS | VIYSDGRRTFYTDSVK | GRAAGTFDS | GP_Gibbs | 0.84 | 6/6
GFDLNEYGIS | VIYADGVRTAYADSVK | GNTAGTFDT | En_Gen | -1.24 | 6/6
GFTLDSYGIS | VIYADGRRTFYGDSVK | GRQAGTFDS | GP_HC | -0.12 | 6/6
GFDLNSYGIS | VIYSDGRRTFYGDSVK | GQEAGTFDD | GP_Gibbs | 0.76 | 6/6
GFTLNEYGIS | VIYSDGRRTFYSDSVK | GRTAGTFDT | GPLM_Gen | -0.20 | 6/6
GFDLNEYGIS | VIYADGQRTAYSDSVK | GNVAGTFDI | En_Gen | -0.57 | 6/6
TFTMNSYGIS | VIDSDGRRTFYGDSVK | GRAAVTFDS | Ctrl | no signal | 0/6
GFNLNEYGIS | VIYADGRRTFYADSVK | GEAAGTFDL | En_HC | 0.56 | 6/6
GFDLNEYGIS | VIYADGVRTFYADSVK | GNVAGTFDV | En_Gen | 0.01 | 6/6
GFDLNEYGIS | VIYADGQRTYYADSVK | GENAGTFDV | En_Gen | -0.36 | 6/6
GFQLNEYGIS | VIYADGMRTMYADSFK | GMKSVNIGD | En_Gibbs | 1.23 | 6/6
GFDLNEYGIS | VIYADGRRTFYADSVK | GQLAGTFDV | En_HC | -0.91 | 6/6
GFWLNEYGIS | VIYSDGRRTFYHDSVK | GRAAGTFDK | GP_HC | no signal | 0/6
KFTLNSYGIS | VIYSDGRRVFYGDSVK | GRAAGTFDS | Ctrl | no signal | 0/6
GFTLNDYGIH | VIYSDGRRTFYQDSVK | GAAAGTFDQ | Ctrl | no signal | 0/6
GFTLNDYGIS | VIYSDGFRTFIGDSVK | GRAAGTFDS | Ctrl | 1.31 | 1/6
YFDLNSYGIS | VIYSDGKRTFYGDSVK | GRQAGTFDS | GP_Gibbs | -0.42 | 6/6
GKDLQEYGVS | VIYADGHRASYADSVK | GNHAGYLDK | En_Gibbs | no signal | 0/6
GFDLNSYGIS | VIYSDGRRTFYVDSVK | GRTAGTFDA | GP_Gen | 0.22 | 6/6
GMDLEAYGIS | VIYADGVRTGYVNKVK | GDTGGMFDD | En_Gibbs | no signal | 0/6
GFDLDEYGIS | VIYADGQRTAYSDSVK | GNNAGTFDV | En_Gen | -0.55 | 6/6
GFTLNSYGIS | VIYSDGRRTFYGDSVR | GRAALAFDS | Ctrl | 1.81 | 1/6
MFDLNSYGIS | VIYSDGRRTFYGDSVK | GQTAGTFDA | GP_Gen | 1.46 | 6/6
GFPLNEYGIS | VIYSDGRRTWYGDSVK | GRTAGTFDS | GP_Gibbs | -0.04 | 6/6
GFDLNEYGIS | VIYADGMRTAYVDSVK | GETAGTFDQ | En_Gen | -0.81 | 6/6
GFGLMDYGIS | VIYADGKRRSYANSFK | GAHAGTFDF | En_Gibbs | 1.05 | 3/6
GFTLNSYGIS | VIYADGRRTFYGDSVK | GETAGTFDV | GP_Gibbs | -0.27 | 6/6
GFTLNEYGIS | VIYSDGRRTFYGDSVK | GQAAGTFDT | GPLM_Gen | 0.39 | 6/6
GFTLNEYGIS | VIYSDGRRTFYSDSVK | GEAAGTFDN | GP_HC | 0.51 | 6/6
GFDLNSYGIS | VIYSDGRRTFYQDSVK | GWAAGTFDS | GP_Gen | 0.98 | 6/6
GFTLNSYGIS | VIYSDGMRTFYTDSVA | GRNAGTFDS | Ctrl | 0.79 | 4/6
GFQLEDYGIS | VIYADGRRTAYAADVK | GQNNVVVGG | En_Gibbs | no signal | 0/6
GFTLNSYGIS | VIYSDGRRTFYADSVK | GRAAGTFDT | GPLM_Gen | 1.18 | 6/6
GFNLNSYGIS | VIYSDGRRTFYHDSVK | GRVAGTFDS | GPLM_Gibbs | 0.14 | 4/6
GQDLMEYGIS | VIYADGTRTMYTNDVK | GHNGGQGKT | En_Gibbs | no signal | 0/6
GFSLNSYGIS | VIYSDGRRTFYGDSVK | GRTAGTFDY | GPLM_Gen | 1.23 | 6/6
GFDLNEYGIS | VIYADGMRTFYADSVK | GKTAGTFDQ | En_HC | -0.49 | 6/6
GFNLNEYGIS | VIYADGRRTFYSDSVK | GEIGGTFDV | En_HC | -0.04 | 6/6
GFDLNSYGIS | VIYSDGRRTFYADSVK | GQAGGTFDS | GP_HC | 1.00 | 6/6
GFTLNDYGIS | VIYSDGRRTMYMDSVK | GRRAGTFDS | GP_HC | 1.35 | 2/6
GFELNSYGIS | VIYADGRRWFYGDSVK | GRQAGTFDS | GP_Gibbs | 0.59 | 4/6
GFDLNEYGIS | VIYADGSRTAYSDSVK | GNVAGTFDQ | En_Gen | -0.03 | 6/6
GFQLNSYGIS | VIYSDGRRTFYGDQVK | GRTAGTFDL | GP_Gibbs | 1.70 | 5/6
GFNLNEYGIS | VIYADGMRTFYTDSVK | GENAGTFDV | En_HC | -0.05 | 6/6
GFTLNEYGIS | VIYSDGRRTFYLDSVK | GRFAGTFDS | GPLM_HC | no signal | 0/6

The closing 8 entries, repeated:

CDR-H1 | CDR-H2 | CDR-H3 | group | mean log10 Kd (nM) | seen in
GFNLNEYGIS | VIYADGRRTFYSDSVK | GEIGGTFDV | En_HC | -0.04 | 6/6
GFDLNSYGIS | VIYSDGRRTFYADSVK | GQAGGTFDS | GP_HC | 1.00 | 6/6
GFTLNDYGIS | VIYSDGRRTMYMDSVK | GRRAGTFDS | GP_HC | 1.35 | 2/6
GFELNSYGIS | VIYADGRRWFYGDSVK | GRQAGTFDS | GP_Gibbs | 0.59 | 4/6
GFDLNEYGIS | VIYADGSRTAYSDSVK | GNVAGTFDQ | En_Gen | -0.03 | 6/6
GFQLNSYGIS | VIYSDGRRTFYGDQVK | GRTAGTFDL | GP_Gibbs | 1.70 | 5/6
GFNLNEYGIS | VIYADGMRTFYTDSVK | GENAGTFDV | En_HC | -0.05 | 6/6
GFTLNEYGIS | VIYSDGRRTFYLDSVK | GRFAGTFDS | GPLM_HC | no signal | 0/6

Three control strains display no target. For all heavy chain designs, 1% of the pairings with them gave a signal, with a median of 2.08 and one signal in twenty below 0.84, so weak values seen in few replicates may be background.
The parent sequence was in this pool as ten entries: three were never detected, three once, and four in most replicates, with averages from 0.34 to 2.37.
The authors averaged sequences with at least three values out of six and counted those with two or fewer as poor binders.

The measurements come from Li et al. 2023 (doi:10.1038/s41467-023-39022-2) through the FLAb antibody collection.